We go through one molecule from ChEMBL document CHEMBL5705895, “Species comparison and pharmacological characterization of human, monkey, rat, and mouse TRPA1 channels” (J Pharmacol Exp Ther, 2012).

Amino acid sequences for entries named in this document (tags omitted). Residues count along the entry.
UniProt Q6RI86, whole entry, looked up: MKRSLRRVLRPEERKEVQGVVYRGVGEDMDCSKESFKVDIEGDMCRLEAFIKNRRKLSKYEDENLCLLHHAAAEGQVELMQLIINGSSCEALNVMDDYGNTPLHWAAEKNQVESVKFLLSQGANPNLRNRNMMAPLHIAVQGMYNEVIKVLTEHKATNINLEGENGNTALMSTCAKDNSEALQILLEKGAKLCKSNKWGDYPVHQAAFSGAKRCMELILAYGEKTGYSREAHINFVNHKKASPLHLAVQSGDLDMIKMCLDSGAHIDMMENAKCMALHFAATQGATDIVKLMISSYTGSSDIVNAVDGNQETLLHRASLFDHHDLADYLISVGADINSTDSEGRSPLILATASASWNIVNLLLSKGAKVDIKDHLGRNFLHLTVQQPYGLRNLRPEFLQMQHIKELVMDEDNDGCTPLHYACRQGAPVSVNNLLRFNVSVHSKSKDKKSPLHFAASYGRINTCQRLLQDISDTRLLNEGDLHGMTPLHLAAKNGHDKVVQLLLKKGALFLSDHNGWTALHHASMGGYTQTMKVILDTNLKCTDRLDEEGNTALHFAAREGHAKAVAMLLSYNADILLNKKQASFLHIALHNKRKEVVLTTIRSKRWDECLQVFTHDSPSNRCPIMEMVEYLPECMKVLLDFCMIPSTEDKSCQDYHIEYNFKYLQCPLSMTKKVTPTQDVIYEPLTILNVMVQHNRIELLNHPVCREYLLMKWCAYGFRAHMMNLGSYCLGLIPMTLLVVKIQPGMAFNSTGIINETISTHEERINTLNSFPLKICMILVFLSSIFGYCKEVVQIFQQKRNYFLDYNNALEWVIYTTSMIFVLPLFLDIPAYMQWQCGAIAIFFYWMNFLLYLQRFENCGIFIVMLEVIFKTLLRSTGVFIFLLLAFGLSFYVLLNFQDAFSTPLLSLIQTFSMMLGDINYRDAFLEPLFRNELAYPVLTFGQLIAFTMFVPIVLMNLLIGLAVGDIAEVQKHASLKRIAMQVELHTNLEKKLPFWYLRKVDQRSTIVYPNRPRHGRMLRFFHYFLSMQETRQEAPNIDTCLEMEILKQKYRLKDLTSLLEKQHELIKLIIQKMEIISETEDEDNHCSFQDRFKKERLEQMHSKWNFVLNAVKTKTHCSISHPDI
UniProt Q8BLA8, whole entry, looked up: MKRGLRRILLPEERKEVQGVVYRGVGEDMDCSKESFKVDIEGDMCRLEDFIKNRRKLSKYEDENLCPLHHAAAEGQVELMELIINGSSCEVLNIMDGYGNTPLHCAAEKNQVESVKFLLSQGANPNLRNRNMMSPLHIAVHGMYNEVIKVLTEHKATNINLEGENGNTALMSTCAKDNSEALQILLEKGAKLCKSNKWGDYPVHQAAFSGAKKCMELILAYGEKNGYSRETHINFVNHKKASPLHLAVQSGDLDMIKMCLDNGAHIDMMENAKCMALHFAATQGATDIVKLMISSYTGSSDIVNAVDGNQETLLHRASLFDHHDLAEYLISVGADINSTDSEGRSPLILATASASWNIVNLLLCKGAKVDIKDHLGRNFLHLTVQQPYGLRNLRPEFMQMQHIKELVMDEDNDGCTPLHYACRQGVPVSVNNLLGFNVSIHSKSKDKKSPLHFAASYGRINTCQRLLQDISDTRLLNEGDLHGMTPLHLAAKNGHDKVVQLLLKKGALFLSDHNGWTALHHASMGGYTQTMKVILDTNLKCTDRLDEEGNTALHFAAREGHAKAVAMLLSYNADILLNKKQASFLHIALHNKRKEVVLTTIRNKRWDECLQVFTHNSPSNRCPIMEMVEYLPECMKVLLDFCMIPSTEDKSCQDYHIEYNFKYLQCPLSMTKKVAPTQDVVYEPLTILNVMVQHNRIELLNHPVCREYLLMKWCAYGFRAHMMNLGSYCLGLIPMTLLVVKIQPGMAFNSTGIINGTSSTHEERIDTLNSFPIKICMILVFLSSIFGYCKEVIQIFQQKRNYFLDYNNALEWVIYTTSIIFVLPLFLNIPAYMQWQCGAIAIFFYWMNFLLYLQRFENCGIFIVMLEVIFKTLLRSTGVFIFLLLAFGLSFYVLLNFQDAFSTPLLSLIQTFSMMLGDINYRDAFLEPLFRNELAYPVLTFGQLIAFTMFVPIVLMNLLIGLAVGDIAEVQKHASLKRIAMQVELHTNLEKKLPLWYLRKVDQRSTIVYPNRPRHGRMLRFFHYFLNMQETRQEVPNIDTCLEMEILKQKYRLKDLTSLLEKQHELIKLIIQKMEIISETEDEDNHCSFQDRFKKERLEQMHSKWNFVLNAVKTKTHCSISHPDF
UniProt O75762, whole entry, looked up: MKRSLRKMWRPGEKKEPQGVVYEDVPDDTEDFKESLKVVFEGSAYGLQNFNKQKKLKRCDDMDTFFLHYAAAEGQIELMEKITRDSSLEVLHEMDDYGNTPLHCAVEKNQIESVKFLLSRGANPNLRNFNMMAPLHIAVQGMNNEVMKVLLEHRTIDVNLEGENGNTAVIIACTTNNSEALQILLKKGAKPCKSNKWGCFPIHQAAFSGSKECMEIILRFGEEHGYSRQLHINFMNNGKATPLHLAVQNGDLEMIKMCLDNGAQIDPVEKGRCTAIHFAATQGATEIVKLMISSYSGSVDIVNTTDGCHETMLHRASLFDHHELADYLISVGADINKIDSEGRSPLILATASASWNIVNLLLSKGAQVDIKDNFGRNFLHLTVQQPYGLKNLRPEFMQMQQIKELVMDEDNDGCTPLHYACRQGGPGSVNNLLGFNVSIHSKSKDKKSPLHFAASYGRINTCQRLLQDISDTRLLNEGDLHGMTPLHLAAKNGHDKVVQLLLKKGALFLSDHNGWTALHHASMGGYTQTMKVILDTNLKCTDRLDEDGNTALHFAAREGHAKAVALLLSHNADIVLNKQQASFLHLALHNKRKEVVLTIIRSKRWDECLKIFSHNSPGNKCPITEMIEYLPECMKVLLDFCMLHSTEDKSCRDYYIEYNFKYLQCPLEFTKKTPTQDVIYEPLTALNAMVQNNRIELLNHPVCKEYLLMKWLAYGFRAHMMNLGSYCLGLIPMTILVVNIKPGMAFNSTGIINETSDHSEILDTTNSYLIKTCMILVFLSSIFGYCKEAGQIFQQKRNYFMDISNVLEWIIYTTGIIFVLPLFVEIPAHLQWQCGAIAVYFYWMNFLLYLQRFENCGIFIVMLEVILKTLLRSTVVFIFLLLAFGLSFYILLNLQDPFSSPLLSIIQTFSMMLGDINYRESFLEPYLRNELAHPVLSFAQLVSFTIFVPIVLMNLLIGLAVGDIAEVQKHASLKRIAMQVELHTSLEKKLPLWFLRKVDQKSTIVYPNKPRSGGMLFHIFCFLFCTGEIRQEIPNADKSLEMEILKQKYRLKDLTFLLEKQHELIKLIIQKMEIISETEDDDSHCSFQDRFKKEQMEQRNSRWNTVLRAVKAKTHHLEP
UniProt A0A1D5QMT1, 1-1144: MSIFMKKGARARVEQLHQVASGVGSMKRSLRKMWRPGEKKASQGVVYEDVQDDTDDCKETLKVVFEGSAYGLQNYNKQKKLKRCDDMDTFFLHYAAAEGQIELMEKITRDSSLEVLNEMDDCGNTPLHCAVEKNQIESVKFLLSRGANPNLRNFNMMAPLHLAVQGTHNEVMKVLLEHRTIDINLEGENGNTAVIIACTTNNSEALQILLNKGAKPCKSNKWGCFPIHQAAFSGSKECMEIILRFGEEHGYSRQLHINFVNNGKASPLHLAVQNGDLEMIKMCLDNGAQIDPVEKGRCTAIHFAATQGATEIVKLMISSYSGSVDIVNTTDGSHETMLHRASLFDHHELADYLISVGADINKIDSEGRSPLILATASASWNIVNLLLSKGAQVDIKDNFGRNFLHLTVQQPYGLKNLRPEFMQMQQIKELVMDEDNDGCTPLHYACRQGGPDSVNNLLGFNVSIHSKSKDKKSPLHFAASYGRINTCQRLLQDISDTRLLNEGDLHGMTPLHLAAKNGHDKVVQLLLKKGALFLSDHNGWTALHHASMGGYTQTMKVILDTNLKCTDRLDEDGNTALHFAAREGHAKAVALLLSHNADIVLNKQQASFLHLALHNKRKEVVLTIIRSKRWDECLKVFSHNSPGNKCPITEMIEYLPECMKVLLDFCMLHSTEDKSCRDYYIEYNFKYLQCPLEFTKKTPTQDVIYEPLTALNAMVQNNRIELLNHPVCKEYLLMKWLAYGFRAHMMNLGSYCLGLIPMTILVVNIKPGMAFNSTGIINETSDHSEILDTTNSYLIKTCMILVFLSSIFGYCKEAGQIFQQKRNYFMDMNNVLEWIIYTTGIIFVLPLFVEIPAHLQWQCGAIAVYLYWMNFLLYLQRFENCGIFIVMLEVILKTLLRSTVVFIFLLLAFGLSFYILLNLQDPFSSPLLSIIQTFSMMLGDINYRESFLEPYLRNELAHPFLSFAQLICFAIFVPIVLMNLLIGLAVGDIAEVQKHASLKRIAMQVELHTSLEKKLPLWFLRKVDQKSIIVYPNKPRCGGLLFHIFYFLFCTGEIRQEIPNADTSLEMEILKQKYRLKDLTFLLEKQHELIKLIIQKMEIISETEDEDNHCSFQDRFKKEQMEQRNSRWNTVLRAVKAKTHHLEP

In general, EC50 refers to the concentration at which the effect is half-maximal. What is called IC50 is the point on the concentration scale where inhibition reaches its midpoint.

Assay [1] has as its target Transient receptor potential cation channel subfamily A member 1 (Rattus norvegicus, UniProt Q6RI86). As to the kind of experiment: Agonist activity at full length rat TRPA1 transfected in HEK293F cells assessed as increase in Ca2+ influx by FLIPR calcium assay.
Assay [2] has as its target Transient receptor potential cation channel subfamily A member 1 (Mus musculus, UniProt Q8BLA8). As to the kind of experiment: Agonist activity at full length mouse TRPA1 transfected in HEK293F cells assessed as increase in Ca2+ influx by FLIPR calcium assay.
Assay [3] concerns the target Transient receptor potential cation channel subfamily A member 1 (Homo sapiens, UniProt O75762). As to the kind of experiment: Antagonist activity at full length human TRPA1 transfected in HEK293F cells assessed as blockade of MO-induced TRPA1 channel activation by measuring Ca2+ influx in presence of 30 uM MO by FLIPR calcium assay.
For assay [4], the target named is Transient receptor potential cation channel subfamily A member 1 (Macaca mulatta, UniProt A0A1D5QMT1). Briefly: Antagonist activity at full length rhesus monkey TRPA1 transfected in HEK293F cells assessed as blockade of MO-induced TRPA1 channel activation by measuring Ca2+ influx in presence of 120 uM MO by FLIPR calcium assay.

Take `Cc1ccc(C(=O)NC(Sc2ccc([N+](=O)[O-])cc2)C(Cl)(Cl)Cl)cc1` (centres undefined): the figures for the EC50 in assay [1] and in assay [2] were 880 nM and 930 nM, respectively. Further, the IC50 turned out to be 1000 nM in assay [3] and 2700 nM in assay [4].
